# Patent EP0556947A1, “Use of M1-selective antimuscarinic pyridobenzodiazepinones for the treatment and prevention of axial myopia” (MERCK & CO. INC., priority 1992, dated 1993)
# By UniProt entry, the sequences of proteins in these tests, tags left out.
# UniProt P10980, whole entry: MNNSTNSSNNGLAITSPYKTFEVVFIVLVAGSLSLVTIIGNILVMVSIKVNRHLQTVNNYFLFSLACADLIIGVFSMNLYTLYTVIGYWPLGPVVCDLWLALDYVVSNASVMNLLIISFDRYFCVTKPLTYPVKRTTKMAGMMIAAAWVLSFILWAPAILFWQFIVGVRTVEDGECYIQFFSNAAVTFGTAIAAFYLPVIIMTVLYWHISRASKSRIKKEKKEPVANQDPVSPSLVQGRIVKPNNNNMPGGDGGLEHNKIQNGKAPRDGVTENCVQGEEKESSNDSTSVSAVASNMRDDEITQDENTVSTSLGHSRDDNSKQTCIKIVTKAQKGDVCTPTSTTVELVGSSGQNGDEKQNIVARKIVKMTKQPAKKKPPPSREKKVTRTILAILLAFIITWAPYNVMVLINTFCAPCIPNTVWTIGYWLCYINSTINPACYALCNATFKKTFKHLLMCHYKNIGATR
# Biological target: M₂ receptors (Rattus norvegicus, UniProt P10980)
# Experiment: ³H-AFDX-384 radioligand binding assay, rat heart
# Conditions: Scatchard analysis, tested as the radiolabelled form, tested form: tritiated radioligand (3H position not s)
structure (smiles),measurement,value
CCCN(CCC)CC1CCCCN1CCNC(=O)N1c2ccccc2C(=O)Nc2cccnc21 (stereo not shown),Kd,5.77 nM
